Measurements from patent US20250188110A1, “SPECIFIC SMALL MOLECULE INHIBITORS THAT BLOCK KMT9 METHYLTRANSFERASE ACTIVITY AND FUNCTION” (ALBERT-LUDWIGS-UNIVERSITÄT FREIBURG, priority 2021, published 2025).

By UniProt entry, the sequences of proteins in these tests, tags left out. Residues count along the entry.
UniProt Q9Y5N5, whole entry: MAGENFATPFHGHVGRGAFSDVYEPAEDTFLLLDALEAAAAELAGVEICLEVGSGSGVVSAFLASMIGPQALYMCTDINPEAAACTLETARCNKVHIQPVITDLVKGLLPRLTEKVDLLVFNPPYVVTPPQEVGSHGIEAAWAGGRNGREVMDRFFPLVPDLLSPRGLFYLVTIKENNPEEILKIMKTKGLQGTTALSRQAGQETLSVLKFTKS
UniProt Q9UI30, 1-120 isoform 2 partner: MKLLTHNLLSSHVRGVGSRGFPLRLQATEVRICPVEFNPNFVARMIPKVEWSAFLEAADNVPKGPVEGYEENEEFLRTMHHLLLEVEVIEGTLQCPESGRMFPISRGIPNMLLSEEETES

Key:
KMT9 [1] = molecular target: T1, KMT9 (Homo sapiens, UniProt Q9Y5N5); assay: KMT9 methyltransferase inhibition assay, MTaseGlo luminescence (from entry 155); conditions: read-out: Inhibition (IC50); MTaseGlo procedure (entries from 155); 100 nM KMT9, 5 μM ETF1, 1 μM SAM
Protocol: For the compounds from entry 155 on in Table 1, the following procedure was used to determine IC50 values: The assay was carried out in white, opaque 384-well OptiPlates (PerkinElmer). For IC50 determination, a 2.5x substrate mix (final assay concentrations: 5 μM ETF1, 1 μM SAM and 1x MTaseGlo Reagent), a 2.5x KMT9 solution (final assay concentration 100 nM) and a 5x inhibitor stock 1:1 dilution series (concentration according to the desired range; dilution series was prepared in assay buffer containing 10% DMSO to obtain a final DMSO concentration of 2% in the assay) were prepared. 2 μL of 5x inhibitor stock and 4 μL of 2.5x KMT9 were pipetted, the plate was spun down at 700 rpm for 1 min using a Hettich UNIVERSAL 320 centrifuge and incubated at room temperature (around 25° C.) for 15 min. The reaction was initiated by adding 4 μL of 2.5x substrate mix, the plate was spun down as described before and incubated at 30° C. for 2 h. Afterwards, 10 μL of 2× MTaseGlo Detection solution was added, the plate was centrifuged as described above and incubated for 60 min at room temperature. Luminescence was measured using a PerkinElmer EnVision 2102 Multilabel Reader. Calculation of inhibition and data fitting was carried out as for entries 1-154. described above. […]

KMT9 [2] = molecular target: T1, KMT9; assay: KMT9 thermal shift assay (SyproOrange); conditions: 500 µM compound, 2 μM KMT9
Protocol: The assay was carried out in 96-well Hard-Shell PCR plates (Bio-Rad Laboratories Inc.). Assay buffer consisted of 50 mM BTP, 1 mM MgCl2 and 1 mM DTT at a pH of 8.5 (adjusted using 1 M HCl and 1 M NaOH). 20X inhibitor stock (in DMSO), 2X enzyme stock and 4X SyproOrange (SO) stock (both in assay buffer) were prepared. 1 μL of 20X compound, 4 μL of assay buffer, 10 μL of 2X KMT9 and 5 μL of 4X SO were pipetted. For the no-compound control, 20X inhibitor stock was replaced by DMSO. The final volume was 20 μL. The plate was spun down at 700 rpm for 1 min using a Hettich UNIVERSAL 320 centrifuge and incubated at 25° C., shaking at 600 rpm. After incubation, the plate was spun down for 1 min at 700 rpm and measurement was conducted using a CFX96 Touch Real-Time PCR Detection System (Bio-Rad Laboratories Inc.). The plate was equilibrated at 20° C. for 4 min and then heated stepwise at a rate of 1° C. per 15 s until 95° C. After every step, fluorescence was measured in FRET mode. Calculation of melting points was conducted by a Boltzman sigmoidal model using GraphPad Prism 7.0. […]

KMT9 [3] = molecular target: T1, KMT9; assay: Microscale thermophoresis (MST) KMT9 binding; conditions: read-out: MST (Kd); His-tag labelled KMT9 20 nM
Protocol: To determine the binding affinity of the compounds according to the present invention and KMT9, microscale thermophoresis (MST) analysis was performed with a NanoTemper Monolith NT.115 instrument (NanoTemper Technologies GmbH). KMT9 was labelled with a RED-Tris-NTA labelling kit (NanoTemper Technologies GmbH) based on the manufacturer's instructions. Buffer including 25 mM HEPES (pH 7.5), 100 mM NaCl, 1 mM DTT and 0.05% Tween was used for the reaction buffer. Varying concentrations of the tested compounds of formula (I) as indicated in Table 1 were titrated against His-tag labelled KMT9 proteins (20 nM). Samples were loaded into standard Capillaries (NanoTemper Technologies GmbH) and MST measurements were performed using 40% MST power and 100% LED power. For each set of binding experiments, MST measurement was carried out with Binding Affinity module in MO.Control program under Nano-RED Excitation. Datasets were processed with the MO.Affinity Analysis software (NanoTemper Technologies GmbH). […]

PC3M cells = assay: Inhibition of cell viability, MTT assay, PC3M; conditions: 7 days
Protocol: Inhibition of cell viability (“in vivo (MTT, PC3M cells)”)
MTT assays were performed with the CellTiter 96 Non-Radioactive Cell Proliferation Assay (MTT) kit (G4000, Promega) according to the manufacturer's instructions. Briefly, 100 μl of cell culture medium containing inhibitor were dispensed per well into 96-well tissue culture dishes and allowed to equilibrate for 30 min at room temperature. 100 μl of cell suspension were added per well (resulting in 300 cells per well). Cells were allowed to adhere for 30 min at room temperature and then incubated at 37° C. (5% CO2) in a CellXpert incubator (Eppendorf). After 4 days, the medium was replaced with 100 μl of fresh cell culture medium containing inhibitor followed by incubation for additional 3 days. At the end of the culture period, 15 μl of Dye Solution per well were added, the plate incubated for 4 hours at 37° C. followed by addition of 100 μl of Solubilization Solution/Stop Mix per well and incubation for 1 hour at 37° C. Finally, the content of the 96-well dish was homogenized by pipetting up and down and assayed at 570 nm and 650 nm using a NanoQuant Infinite M200 Pro plate reader (TECAN). Absorption at 650 nm (background) was substracted from absorption at 570 nm and the resulting values were normalized to those of the DMSO control. […]

## Nc1nc(Cl)nc2c1c(-c1nc(Cc3ccccc3)cs1)cn2[C@@H]1C[C@H](C2CCN(CC3CCOC3)CC2)[C@@H](O)[C@H]1O (stereo partly shown)
KMT9 [1]
  IC50: 100 to 1000 nM
KMT9 [2]
  Thermal shift (ΔTm): +++ (a ΔTm of greater than 15 K and less than or equal to 20 K (15 K<ΔTm≤20 K))
KMT9 [3]
  Kd: < 10 nM
PC3M cells
  in vivo (MTT, PC3M Cells), cell viability effect: ### (an effect at less than or equal to 1 μM)
